Experimental data as given in PubChem BioAssay (NCI).
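These data come from cells grown in 96-well plates and exposed to compound for 48 hours at five concentrations. GI50 marks 50% less growth. TGI is the concentration that stops growth completely.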

Assays:
Assay in all cases: NCI-60 cell line screen, 48 h
[1] = test system: MOLT-4 leukemia
[2] = test system: NCI-H226 lung
[3] = test system: NCI-H23 lung
[4] = test system: NCI-H322M lung
[5] = test system: NCI-H460 lung
[6] = test system: NCI-H522 lung
[7] = test system: NCI/ADR-RES ovarian
[8] = test system: OVCAR-3 ovarian
[9] = test system: OVCAR-4 ovarian
[10] = test system: OVCAR-5 ovarian
[11] = test system: OVCAR-8 ovarian
[12] = test system: PC-3 prostate
[13] = test system: RPMI-8226 leukemia
[14] = test system: SF-295 CNS
[15] = test system: SF-539 CNS
[16] = test system: SK-MEL-2 melanoma
[17] = test system: SK-MEL-28 melanoma
[18] = test system: SK-MEL-5 melanoma
[19] = test system: SK-OV-3 ovarian
[20] = test system: SN12C renal
[21] = test system: SNB-19 CNS
[22] = test system: SNB-75 CNS
[23] = test system: SR leukemia
[24] = test system: SW-620 colon
[25] = test system: U251 CNS
[26] = test system: UACC-257 melanoma
[27] = test system: UACC-62 melanoma
[28] = test system: UO-31 renal

BrC1C2(SCCS2)[C@@H]2C[C@@H](c3ccccc32)C12SCCS2 (stereo not given in full)
TGI [1]: > 100 µM | GI50 [2]: > 100 µM | TGI [2]: > 100 µM | GI50 [3]: > 100 µM | TGI [3]: > 100 µM | GI50 [4]: > 100 µM | TGI [4]: > 100 µM | GI50 [5]: > 100 µM | TGI [5]: > 100 µM | GI50 [6]: > 100 µM | TGI [6]: > 100 µM | GI50 [7]: > 100 µM | TGI [7]: > 100 µM | GI50 [8]: > 100 µM | TGI [8]: > 100 µM | GI50 [9]: > 100 µM | TGI [9]: > 100 µM | GI50 [10]: > 100 µM | TGI [10]: > 100 µM | GI50 [11]: > 100 µM | TGI [11]: > 100 µM | GI50 [12]: > 100 µM | TGI [12]: > 100 µM | GI50 [13]: > 100 µM | TGI [13]: > 100 µM | GI50 [14]: > 100 µM | TGI [14]: > 100 µM | GI50 [15]: > 100 µM | TGI [15]: > 100 µM | GI50 [16]: > 100 µM | TGI [16]: > 100 µM | GI50 [17]: > 100 µM | TGI [17]: > 100 µM | GI50 [18]: 63.5 µM | TGI [18]: > 100 µM | GI50 [19]: > 100 µM | TGI [19]: > 100 µM | GI50 [20]: > 100 µM | TGI [20]: > 100 µM | GI50 [21]: > 100 µM | TGI [21]: > 100 µM | GI50 [22]: 18.7 µM | TGI [22]: > 100 µM | GI50 [23]: > 100 µM | TGI [23]: > 100 µM | GI50 [24]: > 100 µM | TGI [24]: > 100 µM | GI50 [25]: > 100 µM | TGI [25]: > 100 µM | GI50 [26]: > 100 µM | TGI [26]: > 100 µM | GI50 [27]: > 100 µM | TGI [27]: > 100 µM | GI50 [28]: > 100 µM | TGI [28]: > 100 µM
